{"source": "patent US20150173369A1", "about": "“S[…] CONTROL AND IMPROVED CROP TOLERANCE FROM COMBINATIONS OF 2,4-D-CHOLINE, GLYPHOSATE, AND G[…] 2,4-D-, GLYPHOSATE- AND GLUFOSINATE-TOLERANT SOYBEANS, CORN, COTTON AND OTHER CROP AREAS” (Dow AgroSciences LLC, priority 2013, published 2015)", "tested_on": "AAD12 Soybean (GLXMA)", "assay": "Field trials, crop tolerance (% visual crop injury)", "type": "in vivo, Glycine max L.", "conditions": "table title: % Visual Necrosis; GLXMA 2DAA; 822 g ae/ha alone", "procedure": "Field trials were conducted under agricultural field conditions in multiple states in the United States, including but not limited to Arkansas, Iowa, Illinois, Indiana, Kansas, Minnesota, Mississippi, Missouri, New York, Tennessee and Wisconsin. Trials were established as RCB (randomized complete block) design, with 3-4 replicates per treatment, and plot sizes varying from 5-10 feet (ft) wide by 12-30 ft long. Treatments were applied with small plot backpack sprayers, using pressurized carbon dioxide (CO2) as propellant. Pressure varied from 17-52 pounds per square inch (psi), with spray tips typically of a Flat Fan type applying water diluent at 15 gallons per acre (GPA). Boom sizes varied from 5-11 ft in width. Treatments were applied to soybean, cotton, corn or fallow crop land. Weed sizes varied, but all treatments were applied as post-emergence treatments to weeds from 2 leaf to 2 tiller growth stages varying from 3 to 17 inches in height. The weed spectrum included, but was not limited to, Amaranthus palmeri S. Wats. (Palmer amaranth, AMAPA), Ambrosia trifida L. (giant ragweed, AMBTR), Conyza canadensis (L.) Cronq. (horseweed, ERICA) and Salsola tragus L. (Russian thistle, SASKR). […]"}
{"smiles": "CP(=O)(O)CCC(N)C(=O)O", "note": "(stereo not shown) [Glufosinate-Ammonium, ammonium (3-amino-3-carboxypropyl)(methyl)phosphinate]", "values": [{"measurement": "Mean % visual crop injury", "result": 21.3, "unit": "%"}]}
